Entries after “also recorded” stand apart in the source; their conditions may differ.

The subject of assay [1] is patients with treatment-resistant depression. Kind of assay: Blinded, randomized placebo-controlled crossover trial; 21-point Hamilton Depression Rating Scale (HDRS/HRDS). The format is in vivo, human. The text has this:
(§1) Primary endpoint was the change on the 21-point Hamilton Depression Rating Scale (HRDS).
(§2) This study was designed as a randomized, placebo-controlled crossover pilot clinical trial. […] The order of the session was randomly assigned by a random number generator. Other than the gas mixture administered, both sessions were indistinguishable from each other in setting, setup, and monitoring.
Patients were recruited from an existing database of treatment-resistant depression patients administered by the Washington University Department of Psychiatry as well as from the “Volunteers for Health” patient pool within the Washington University School of Medicine. […] Patients were instructed not to suspend their standard of care treatment for major depression. Patients were required to maintain a stable medication regiment without changes for 4 weeks prior to initiation of the study and continue on the same dose throughout.
(§3) The gas mix was administered via a standard anesthesia facemask through tubing connected to an anesthesia machine. A small sample connector line was inserted into the facemask allowing the measurement of inhaled and exhaled gas concentrations. Total gas flow was between 4-8 L/min. Patients were monitored during and after the treatment according to American Society of Anesthesiologists standard which includes continuous 3-lead ECG, pulsoximetry, non-invasive blood pressure and end-tidal CO2 under the supervision of an attending-level anesthesiologists. After the one-hour treatment session, patients were transferred and monitored for 2 hours. A study team physician determined if the patients met criteria for discharge before patients were discharged.
(§4) Outcomes were assessed at six time points for each patient (three per session; two sessions): within each session at baseline, 2 hours, and 24 hours after treatment. Primary study endpoint was the change on the 21-point Hamilton Depression Rating Scale (HDRS). Secondary endpoints included a change on the Quick Inventory of Depressive Symptoms Self Report (QIDS-SR) scale. At baseline, the Brief Psychiatric Rating Scale (BPRS) was also administered. Psychiatric safety endpoints were assessed via standard scales for psychosis and the Columbia suicide scale. Other safety endpoints included cardiovascular, respiratory and central nervous system adverse events determined by hemodynamic and respiratory monitoring.
The primary outcome was analyzed with a mixed effects repeated measures linear model that included three interactions (treatment; time; randomization group) using restricted maximum likelihood estimation.
For the analysis of paired data, such as the levels of HRDS, we used the Wilcoxon signed-rank test. To compare the rates of treatment responses and remissions between the two treatments and using the paired data structure, an exact binomial test was used (and corresponding odds ratios calculated) as the number of discordant pairs was <20. Data are presented as mean±SD or 95% confidence intervals, or as median and interquartile range. Because this is the first in-human patient pilot study, no prior knowledge existed for adequate sample size determination. […] JMP Pro 11.1 and SAS 9.3 (SAS Institute, Cary, N.C.), as well as Prism 6.04 (GraphPad Software, Inc., La Jolla, Calif.) were used for the statistical analysis and graphing.

The test system is the same in assay [2]. Kind of assay: Same crossover trial; Quick Inventory of Depressive Symptoms Self Report (QIDS-SR) scale. The assay is classed as in vivo, human. Conditions: Table 4. Here is the method:
as §1, §2, §3, §4

Consider `[N-]=[N+]=O` [nitrous oxide], for which the “odds ratio of remission, nitrous oxide vs placebo” value in assay [1] (24 hours after treatment, 95% CI 0.31-28.8) was found to be 3.0. In addition, the “odds ratio of treatment response, nitrous oxide vs placebo” value in assay [1] (24 hours after treatment, 95% CI 0.45-35.79) is reported as 4.0. Also, in assay [1] (24 hours, 20 patients), the “patients with full remission (complete resolution of depressive symptoms, HRDS <7 points)” value is “Three”; the “patients with treatment response (reduction in depressive symptoms >50% on the HRDS)” value is “four and Four”. For the same compound, the “1 week HRDS scores compared to baseline” value in assay [1] (first treatment session, 1 week after treatment, in words) is on record as “significantly lower than at baseline”. Further, in assay [1] (in words), the “antidepressant effect / reduction in depressive symptoms compared to placebo” value was “rapid and marked antidepressant effects; also recorded: significantly more pronounced reduction in depressive symptoms; also recorded: significantly stronger reduction in depressive symptoms”; the “onset of antidepressant action” value is “within two hours”. Besides, in assay [2], the “response on the QIDS scale: change 0 (patients)” value is on record as 10/20; the “response on the QIDS scale: change of 1 level, first arrow (P00003, presumably worse) (patients)” value is reported as 2/20; the “response on the QIDS scale: change of 1 level, second arrow (P00004, presumably better) (patients)” value is reported as 3/20; the “response on the QIDS scale: change of 2 levels, second arrow (P00004, presumably better) (patients)” value was 5/20.

Source of the values: patent publication US20170071975A1, “COMPOSITIONS AND METHODS FOR TREATING DEPRESSIVE DISORDERS” (Steerwasher, LLC, priority 2014, published 2017).
